Paper PMC6087491 (Bioorganic & medicinal chemistry, 2018)

Experiments:
[1] = test system: gingival fibroblast (HGF); settings: HGF normal human cells, concentration higher than 100 μM
oral keratinocyte (OK) = settings: OK normal human cells, concentration higher than 100 μM

COc1cc(/C=C/c2ccc(OC(=O)C(C)(CO)CO)cc2)cc(OC)c1 [Compound 12, 4-(3,5-Dimethoxystyryl)phenyl-3-hydroxy-2-(hydroxymethyl)-2-methylpropanoate]
effect on cell viability [1]: No significant effects on cell viability
effect on cell viability (oral keratinocyte (OK)): No significant effects on cell viability
